Results published in patent US8367720B2 (Panorama Research Inc., priority 2007, dated 2013).
Where two headings read alike, the source gives them in different places.

Experiments:
L1210 cells = type: cell-based; conditions: concentration not given
[1] = system: Staphylococcus aureus wild type; test: Test of minimal inhibitory concentration (MIC); type: cell-based; conditions: for MIC: Staphylococcus aureus
MRSA5676 = test: Test of minimal inhibitory concentration (MIC); type: cell-based, Staphylococcus aureus; conditions: 24 h; for MIC: Staphylococcus aureus, read-out: MIC, MRSA5676
MRSA5677 = test: Test of minimal inhibitory concentration (MIC); type: cell-based, Staphylococcus aureus; conditions: 24 h; for MIC: Staphylococcus aureus, read-out: MIC, MRSA5677
[2] = system: Pseudomonas aeruginosa (PAO1); conditions: 12.5 mg/mL (34 mM); cited from earlier work
[3] = system: BF of Pseudomonas aeruginosa; test: Scanning electron microscopy (SEM) experiment, biofilm (BF) formation; type: cell-based; conditions: 1 mM; early BF 3rd day, mature BF 7th day (FIG. 6, 7)
MCF-7 cells = conditions: MCF-7, 5 μM, cited from earlier work
[4] = system: rats with STZ-induced diabetes mellitus; test: Therapeutical effects on STZ-induced diabetes mellitus in rats; conditions: Day 0, before treatment
[5] = two-fold dilution, 37° C., absorbance 595 nm

Compound	effect on cell cycle of L1210 cells (L1210 cells)	MIC [1]	MIC ([1]; 24 h, read-out: MIC, Wild type)	MIC (MRSA5676)	MIC (MRSA5677)	growth of the cultured PAO1 [2]	production of Pseudomonas aeruginosa and the activities of protease and elastase [2]	MIC, Wild type ([1]; two-fold dilution, 37° C., 24 h, absorbance 595 nm)	MIC, MRSA5676 (MRSA5676; [5])	MIC, MRSA5677 (MRSA5677; [5])	formation of early and mature BF of Pseudomonas aeruginosa under SEM [3]	increase of cells of G1 phase (MCF-7 cells; 24 h, vs DMSO control)	increase of MCF-7 cells of sub-G1 phase (MCF-7 cells; 48 h, vs control)	Blood glucose [4]	Body weight [4]	Total cholesterol [4]	Total triglyceride [4]
C=C1CCC2[C@@](C)(CC[C@@H](O)[C@@]2(C)CO)C1CC(C1=CCOC1=O)S(=O)(=O)[O-].[Na+] (some centres unmarked) [Lianbizhi, andrographolide sodium bisulfite]	did not change the cell cycle	> 1000 µM	> 1000 µM	> 1000 µM	> 1000 µM	did not influence growth	significantly inhibited										
potassium sodium dehydroandrographolide succinate [Yanhuning]	did not change the cell cycle							^c (no activity (>1 mM))	^c (no activity (>1 mM))	^c (no activity (>1 mM))							
C=C1CCC2[C@@](C)(CC[C@@H](O)[C@@]2(C)CO)C1C/C=C1/C(=O)OCC1O (some centres unmarked) [Andro, Andrographolide]	arrested L1210 cells at G0-G1 phase	> 1000 µM	> 1000 µM	> 1000 µM	> 1000 µM						did not significantly inhibit the formation of BF	10%	7%	22.15 ± 0.35 mmol/L	198.33 ± 10.69 g	3.15 ± 1.67 mmol/L	8.44 ± 2.45 mmol/L
